Results on ten compounds are retold here after EP1903056A2, “HLA-A1, -A2 -A3, -A24, -B7, and -B44 tumor associated antigen peptides and compositions” (priority 2002, dated 2004).

Protein sequences, listed by entry. Tags and fused reporters are not part of them. Lines headed by an entry give the natural chain unless they say otherwise; changes in a name come on top.
UniProt P01889: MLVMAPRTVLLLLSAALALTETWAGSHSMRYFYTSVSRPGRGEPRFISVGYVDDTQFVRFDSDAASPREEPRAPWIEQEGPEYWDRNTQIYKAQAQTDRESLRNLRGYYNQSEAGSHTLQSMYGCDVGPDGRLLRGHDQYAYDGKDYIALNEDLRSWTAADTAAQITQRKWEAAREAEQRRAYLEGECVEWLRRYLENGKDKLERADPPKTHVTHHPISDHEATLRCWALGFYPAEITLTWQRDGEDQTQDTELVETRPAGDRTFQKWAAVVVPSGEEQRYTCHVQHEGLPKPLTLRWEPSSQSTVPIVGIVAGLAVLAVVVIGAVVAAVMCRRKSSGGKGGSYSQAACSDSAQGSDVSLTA

One test addresses B*1801 (Homo sapiens, UniProt P01889, A329T/A93T/A95T/C349S/D201E/D54G/D98Y/E176V/E187T/E204Q/E69T/K202T/Q94N/R155S/R180L/S121R/V306I/Y140S/Y195H/Y33H/Y91S). In words: B44 supertype peptide binding, B*1801. The conditions noted are these: HER 2/neu-derived B44 peptides, Table 27.
A further test addresses B*4501 (Homo sapiens, UniProt P01889, A329T/A65T/A93T/A95T/C349S/D138N/D201E/D98Y/E176V/E187L/E204Q/E69K/H137Y/K202T/L119W/N87E/Q56L/Q94N/R155S/R180D/S121R/S35A/S48T/V127L/V306I/V36M/W191S/Y140L/Y33H/Y91S). Description: B44 supertype peptide binding, B*4501. The conditions noted are these: HER 2/neu-derived B44 peptides, Table 27; read-out: B* 4501.
Another test addresses B*4402 (Homo sapiens, UniProt P01889, A223V/A65T/A93T/A95T/D201E/D98Y/E176V/E187L/E204Q/E69K/G107R/H137Y/K202T/L105A/L119I/N104T/N87E/Q56L/Q94N/R106L/R155S/R180D/S101N/S121R/S35A/S48T/T118I/V36M/W191S/Y140D/Y91S). Description: B44 supertype peptide binding, B*4402. The note with it: HER 2/neu-derived B44 peptides, Table 27; read-out: B* 4402.
In a further test the target is B*4001(B60) (Homo sapiens, UniProt P01889, A65T/A93T/A95T/D138N/D98Y/E176V/E69K/N87E/Q56L/Q94N/R180L/S121R/S35A/S48T/T167S/V36M/W171L/Y33H/Y91S). Description: B44 supertype peptide binding, B*4001. The note with it: HER 2/neu-derived B44 peptides, Table 27; read-out: B* 4001.

For the compound `CC[C@H](C)[C@H](NC(=O)[C@H](C)NC(=O)[C@@H](NC(=O)[C@@H]1CCCN1C(=O)[C@@H](NC(=O)[C@H](CCCCN)NC(=O)[C@@H](NC(=O)[C@H](CC(N)=O)NC(=O)[C@H](CCC(=O)O)NC(=O)CN)C(C)C)[C@@H](C)CC)C(C)C)C(=O)O` [compound 464], the IC50 on B*1801 is 563 nM; at B*4501, 198 nM.

On to `CC[C@H](C)[C@H](NC(=O)[C@H](CC(N)=O)NC(=O)[C@H](C)NC(=O)[C@H](CO)NC(=O)[C@@H](NC(=O)[C@@H](NC(=O)[C@H](C)NC(=O)[C@H](CCCNC(=N)N)NC(=O)[C@@H](NC(=O)[C@H](CCC(=O)O)NC(=O)[C@@H](N)CCCNC(=N)N)C(C)C)C(C)C)[C@@H](C)O)C(=O)O` [compound 482], for which the IC50 at B*1801 came to 4490 nM; at B*4402, 1680 nM.

As for `CC[C@H](C)[C@H](NC(=O)[C@H](CCCCN)NC(=O)[C@@H](NC(=O)[C@H](CC(N)=O)NC(=O)[C@H](CCC(=O)O)NC(=O)CN)C(C)C)C(=O)N1CCC[C@H]1C(=O)N[C@H](C(=O)N[C@@H](C)C(=O)O)C(C)C` [compound 488], the IC50 was found to be 1510 nM on B*1801 and 293 nM at B*4001(B60).

Regarding `CC[C@H](C)[C@H](NC(=O)[C@H](CCC(=O)O)NC(=O)[C@@H](N)CCCCN)C(=O)N[C@@H](CC(C)C)C(=O)N[C@@H](CC(=O)O)C(=O)N[C@@H](CCC(=O)O)C(=O)N[C@@H](C)C(=O)N[C@@H](Cc1ccc(O)cc1)C(=O)N[C@H](C(=O)O)C(C)C` [compound 489], the IC50 at B*1801 is 1360 nM; on B*4402, 6470 nM.

For `CC[C@H](C)[C@H](NC(=O)[C@@H]1CCCN1C(=O)[C@@H](NC(=O)[C@H](CCCCN)NC(=O)CNC(=O)CNC(=O)[C@H](CC(=O)O)NC(=O)[C@H](C)NC(=O)[C@H](Cc1c[nH]cn1)NC(=O)[C@H](Cc1ccc(O)cc1)NC(=O)[C@H](CCC(=O)O)NC(=O)[C@@H](N)[C@@H](C)O)C(C)C)C(=O)O` [compound 492], the values for the IC50 on B*1801, on B*4402 and at B*4001(B60) were 632 nM, 3340 nM and 195 nM, respectively.

In the case of `CSCC[C@H](NC(=O)[C@H](CO)NC(=O)[C@H](CCC(=O)O)NC(=O)[C@@H](N)Cc1ccccc1)C(=O)N1CCC[C@H]1C(=O)N[C@@H](CC(N)=O)C(=O)N1CCC[C@H]1C(=O)N[C@@H](CCC(=O)O)C(=O)NCC(=O)O` [compound 507], the IC50 on B*1801 is 6070 nM; on B*4402, 14800 nM.

In the case of `CC(C)[C@H](NC(=O)[C@H](CCC(=O)O)NC(=O)[C@@H](N)CCC(N)=O)C(=O)N[C@H](C(=O)N[C@@H](C)C(=O)N[C@@H](CCC(=O)O)C(=O)N[C@@H](CC(=O)O)C(=O)NCC(=O)N[C@H](C(=O)O)[C@@H](C)O)[C@@H](C)O` [compound 547], the results for the IC50 at B*1801, on B*4402 and at B*4501 were 5210 nM, 7890 nM and 1840 nM, respectively.

With `CC(C)[C@H](NC(=O)[C@H](C)NC(=O)[C@H](CCCNC(=N)N)NC(=O)[C@@H](NC(=O)[C@H](CCC(=O)O)NC(=O)[C@@H](N)CCCNC(=N)N)C(C)C)C(=O)N[C@H](C(=O)O)[C@@H](C)O` [compound 550], the figures for the IC50 at B*1801 and at B*4001(B60) were 8560 nM and 3140 nM, respectively.

Consider `CC[C@H](C)[C@H](NC(=O)[C@H](CCC(=O)O)NC(=O)[C@H](CCC(=O)O)NC(=O)[C@H](CC(C)C)NC(=O)[C@@H](NC(=O)[C@H](CCC(=O)O)NC(=O)[C@@H](N)Cc1ccccc1)[C@@H](C)O)C(=O)O` [compound 551], for which the IC50 at B*1801 worked out at 1520 nM; on B*4001(B60), 7620 nM.

For the compound `C[C@H](NC(=O)[C@H](Cc1c[nH]cn1)NC(=O)[C@H](Cc1ccc(O)cc1)NC(=O)[C@H](CCC(=O)O)NC(=O)[C@@H](NC(=O)[C@H](CCC(=O)O)NC(=O)[C@@H](N)CC(=O)O)[C@@H](C)O)C(=O)N[C@@H](CC(=O)O)C(=O)NCC(=O)O` [compound 562], the IC50 is 159 nM on B*1801 and 13400 nM on B*4501.
